By Ki is commonly meant a dissociation constant, usually derived from enzyme kinetics or from competition with a known ligand.

Here are results for 2 compounds from patent publication US6365633B1, “Method of treating eating disorders” (Knoll Pharmaceutical Company, priority 1999, dated 2002).

Structures are written as SMILES.

In assay [1] the target is [3H]Dopamine reuptake in rat brain tissue. The assay can be described thus: in vitro [3H]dopamine reuptake inhibition in rat brain tissue. The assay is classed as biochemical. As to conditions: means of ≧3 separate determinations.
Assay [2] addresses [3H]5-HT reuptake in rat brain tissue. As to conditions: read-out: Ki (nM) [3H]5-HT, reuptake inhibition, means of ≧3 separate determinations.

In the case of `CNC(CC(C)C)C1(c2ccc(Cl)cc2)CCC1` (stereo not shown) [Example 1, N-{1-[1-(4-chlorophenyl)cyclobutyl]-3-methylbutyl}-N-methylamine], the Ki was 24 nM in assay [1] and 18 nM in assay [2].
In the same order, the values of `CC(C)CC(N)C1(c2ccc(Cl)cc2)CCC1` (stereo not shown) [Example 2, 1-[1-(4-chlorophenyl)cyclobutyl]-3-methylbutylamine] are 31 nM and 26 nM.
